# Source: US20260098054A1, “COMPOSITIONS AND METHODS FOR CONSTRUCTING CONJUGATES” (priority 2022, published 2026)
# What was measured:
# U87-MG cells = test: In vitro cytotoxicity assay (CCK-8) in U87-MG cells; conditions: U87-MG (high αvβ3 integrin), 48 h incubation, fold of free DM1 activity
# Procedure: (§1) Cells were plated in 96-well microplates at a density of 5×10^4 cells/well for 24 h for attachment, 90 μl of DMEM with 10% FBS and 100 U/mL P/Swas added to each well. PDCs 1-6 were first dissolved in DMSO respectively, at a concentration of 10 mM, followed by serial dilution in culture medium to achieve different concentrations as specified. For U87-MG cells, the concentration of compounds administered ranged from 1.37 to 27000 nM. While for HEK-293T cells, the concentration of compounds administered ranged from 0.03 to 1000 nM. The cells treated with the compounds were then incubated for 48 h. 10 μl of CCK-8 solution was then added to each well and incubated for 30 min. Absorbance was acquired at 450 nm using a spectrophotometer (Synergy HTX, Biotek). Three experiments were performed separately in triplicates and the data was processed using the GraphPad Prism (GraphPad Software, La Jolla, CA).
# (§2) Next, the biological activities of these conjugates were evaluated.
# Then, the in vitro antitumor efficacy of PDCs 1-6 was examined by CCK-8 assay (FIG. 5B). The IC50 of free DM1 and its conjugates were compared internally within the same cell line, to determine the potency of the six compounds.
# HEK-293T cells = test: In vitro cytotoxicity assay (CCK-8) in HEK-293T cells; conditions: CCK-8, PDCs 1-6
# Procedure: as §1, §2
# The peptide-drug conjugates were tested on the negative control cell line.
# [1] = Stability test of conjugates (checked by LCMS); format: physicochemical; conditions: aqueous solvents under air atmosphere over a wide pH range
# Procedure: FIGS. 5A-5C are line graphs of stability test and biological evaluations of PDC 1-6. […] The compound was checked by LCMS after 24 h and 48 h.
substance,measurement,setting,value
OPA-c [RGDfK]-DM1-DMAC conjugate [PDC-2],cytotoxicity compared to free DM1 (IC50 compared within the same cell line),U87-MG cells,0.09 fold
same,cytotoxicity in words (ranking among the six compounds),HEK-293T cells,least cytotoxicity
same,stability in comparison to PDC-1,[1],enhanced stability
